Assay results: PMC8618983, “Investigation of the Transport Pathways Associated with Enhanced Brain Delivery of Peptide Drugs by Intranasal Coadministration with Penetratin” (Pharmaceutics, 2021)

Assays:
[1] = mice, anti-insulin staining, n = 3 or 4
[2] = cited from earlier work
Source text: During the permeation through the nasal mucosa, drugs come across microvascular vessels in the lamina propria directed toward the systemic circulation before reaching the brain or cerebrospinal fluid (CSF).

[3] = intranasal insulin 10 IU/kg with L-penetratin 2.0 mM, 30 min

Substance: insulin
- insulin distribution at bregma 0.85 mm (bottom part of the brain) [1, 3]: insulin-derived intensive fluorescence at the bottom part of the brain
- insulin distribution at bregma 4.25 mm (olfactory bulb) [1, 3]: most of the bright fluorescence derived from insulin came from the surface of the olfactory bulb
- insulin distribution at bregma −1.91 mm (hippocampus) [1, 3]: could reach the deeper part of the brain, around the hippocampus
- insulin distribution at bregma 0.85 mm (central part, blood vessels) ([1]; intranasal insulin 10 IU/kg with L-penetratin 2.0 mM, 30 min, tomato lectin for vessels): presence of insulin at the perivascular spaces of arterial blood vessels
- detailed insulin localization in the hippocampus ([1]; intranasal insulin with L-penetratin, bregma −1.91 mm): specifically accumulate on the pyramidal cells of the hippocampus and the granular cells of the dentate gyrus
- delivery to the brain by intranasal coadministration with L-penetratin [2]: significantly increased
